The source of these data is patent US10398687B2, “Use of cyproheptadine to treat organophosphate exposure” (dated 2019).

The assay has as its system 2.75×LD50 sarin. The conditions noted are these: dose giving 75% survival.

As for `CN1[C@@H]2CC[C@H]1C[C@@H](OC(=O)C(CO)c1ccccc1)C2` (stereo partly shown), the “ED75, 2.75X Sarin Challenge” value is reported as “ED75: 10.0 mg/kg”.
